Measured values from patent US9744172B2 (priority 2010, dated 2017).

By UniProt entry, the sequences of proteins in these tests, tags left out. Residues count along the entry.
UniProt Q12866, 21-999: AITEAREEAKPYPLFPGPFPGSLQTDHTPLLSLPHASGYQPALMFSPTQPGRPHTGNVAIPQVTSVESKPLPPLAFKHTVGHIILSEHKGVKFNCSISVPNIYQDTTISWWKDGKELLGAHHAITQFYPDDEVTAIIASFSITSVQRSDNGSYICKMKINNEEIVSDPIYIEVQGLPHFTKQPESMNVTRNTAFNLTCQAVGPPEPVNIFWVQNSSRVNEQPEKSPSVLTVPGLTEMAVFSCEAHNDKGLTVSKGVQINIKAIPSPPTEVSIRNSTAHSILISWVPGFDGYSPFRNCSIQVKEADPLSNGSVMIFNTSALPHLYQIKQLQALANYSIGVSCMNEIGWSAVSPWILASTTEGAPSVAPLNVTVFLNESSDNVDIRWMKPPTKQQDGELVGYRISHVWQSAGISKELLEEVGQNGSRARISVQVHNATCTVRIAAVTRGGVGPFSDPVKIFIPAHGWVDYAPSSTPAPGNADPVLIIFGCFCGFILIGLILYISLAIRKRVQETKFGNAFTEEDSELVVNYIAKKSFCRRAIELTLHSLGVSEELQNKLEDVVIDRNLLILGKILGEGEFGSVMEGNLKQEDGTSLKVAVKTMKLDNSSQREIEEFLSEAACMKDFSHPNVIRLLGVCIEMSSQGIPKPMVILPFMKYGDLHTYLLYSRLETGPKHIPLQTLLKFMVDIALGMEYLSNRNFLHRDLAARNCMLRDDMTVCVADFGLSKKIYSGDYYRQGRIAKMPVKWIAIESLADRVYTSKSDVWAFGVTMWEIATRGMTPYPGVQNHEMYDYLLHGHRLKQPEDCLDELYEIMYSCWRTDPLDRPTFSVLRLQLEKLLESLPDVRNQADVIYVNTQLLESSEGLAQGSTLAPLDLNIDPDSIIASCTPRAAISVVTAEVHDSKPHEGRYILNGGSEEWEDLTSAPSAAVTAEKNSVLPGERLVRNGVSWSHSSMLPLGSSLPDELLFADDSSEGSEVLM

target: Mer receptor tyrosine kinase (Mer) (Homo sapiens (Human), UniProt Q12866)

Mer IC50, −:
CCCCCNc1ncc2c(-c3ccccc3)nn(CC3CCC(NC(=O)OC(C)(C)C)CC3)c2n1 (stereo not shown) [UNC00000461A]
CN(C)CCCNc1ncc2c(-c3ccccc3)nn(CC3CCC(N)CC3)c2n1 (stereo not shown) [UNC00000473A]
CC(C)n1nc(-c2ccccc2)c2cnc(Nc3ccc(F)cc3)nc21 [UNC1001A]
COc1ccc(Nc2ncc3c(-c4ccccc4)nn(C(C)C)c3n2)cc1 [UNC1000A]
